Values quoted from earlier work in patent publication US20250368636A1, “NOVEL HETEROCYCLIC COMPOUND, SALT THEREOF, AND L[…] COMPOSITION” (The University of Electro-Communications, priority 2022, published 2025).

Protein sequences, listed by entry. Tags and fused reporters are not part of them.
UniProt P08659, whole entry: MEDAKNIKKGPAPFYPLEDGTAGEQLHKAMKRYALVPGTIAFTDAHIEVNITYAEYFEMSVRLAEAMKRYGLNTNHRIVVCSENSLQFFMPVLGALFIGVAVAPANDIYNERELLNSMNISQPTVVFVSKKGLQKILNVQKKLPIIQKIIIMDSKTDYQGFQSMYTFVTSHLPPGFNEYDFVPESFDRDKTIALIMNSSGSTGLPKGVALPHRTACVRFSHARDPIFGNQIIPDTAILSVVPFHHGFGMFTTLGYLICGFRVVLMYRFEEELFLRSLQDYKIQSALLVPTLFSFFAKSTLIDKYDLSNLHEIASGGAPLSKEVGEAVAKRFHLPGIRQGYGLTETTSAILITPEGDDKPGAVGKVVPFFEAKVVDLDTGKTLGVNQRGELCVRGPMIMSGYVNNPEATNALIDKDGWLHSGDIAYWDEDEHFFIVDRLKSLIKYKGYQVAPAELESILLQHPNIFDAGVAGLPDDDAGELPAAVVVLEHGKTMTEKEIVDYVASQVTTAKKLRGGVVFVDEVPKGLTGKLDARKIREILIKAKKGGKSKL

Target: firefly luciferase (Luc) (Photinus pyralis, UniProt P08659)
Settings: in the presence of Luc, ATP and Mg2+; background, prior art; cited from earlier work

SMILES: O=C(O)[C@H]1CSC(c2nc3ccc(O)cc3s2)=N1 [firefly luciferin (LH2), firefly luciferin]
- Emission wavelength / peak wavelength of emission spectrum: approximately 560 nm
